This note sets out measurements from the Kinase Knowledgebase extract (Sharma et al. 2016).

By UniProt entry, the sequences of proteins in these tests, tags left out. Where a name states a change or a piece, a line headed by the entry shows the natural chain unless it says otherwise.
UniProt P42338: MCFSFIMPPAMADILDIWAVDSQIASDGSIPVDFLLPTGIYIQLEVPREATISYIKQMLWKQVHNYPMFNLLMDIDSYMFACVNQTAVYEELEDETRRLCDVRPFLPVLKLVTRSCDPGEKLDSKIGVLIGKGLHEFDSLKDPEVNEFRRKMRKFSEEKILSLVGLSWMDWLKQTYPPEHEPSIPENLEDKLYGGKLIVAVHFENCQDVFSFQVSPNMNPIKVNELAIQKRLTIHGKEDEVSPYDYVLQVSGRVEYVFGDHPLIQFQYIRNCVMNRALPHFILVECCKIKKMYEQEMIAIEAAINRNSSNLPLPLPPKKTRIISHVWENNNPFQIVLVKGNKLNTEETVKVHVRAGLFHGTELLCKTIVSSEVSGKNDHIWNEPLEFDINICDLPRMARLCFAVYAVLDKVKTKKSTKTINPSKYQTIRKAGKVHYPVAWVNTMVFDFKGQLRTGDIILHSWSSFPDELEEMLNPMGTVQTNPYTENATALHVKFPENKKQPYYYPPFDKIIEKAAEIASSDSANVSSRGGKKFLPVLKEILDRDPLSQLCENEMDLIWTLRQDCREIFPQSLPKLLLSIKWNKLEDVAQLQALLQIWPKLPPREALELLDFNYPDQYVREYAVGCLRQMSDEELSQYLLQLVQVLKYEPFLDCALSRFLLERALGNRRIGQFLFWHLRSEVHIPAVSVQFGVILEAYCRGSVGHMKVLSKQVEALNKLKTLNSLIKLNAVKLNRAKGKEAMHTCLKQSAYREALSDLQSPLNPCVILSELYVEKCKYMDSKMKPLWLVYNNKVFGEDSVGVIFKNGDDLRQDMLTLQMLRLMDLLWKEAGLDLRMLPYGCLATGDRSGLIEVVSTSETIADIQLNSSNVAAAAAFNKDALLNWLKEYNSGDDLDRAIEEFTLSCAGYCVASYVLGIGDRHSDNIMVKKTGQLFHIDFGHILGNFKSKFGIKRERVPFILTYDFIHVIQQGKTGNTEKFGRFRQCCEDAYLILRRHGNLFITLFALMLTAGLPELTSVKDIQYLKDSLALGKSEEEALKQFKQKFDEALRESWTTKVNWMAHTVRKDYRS
UniProt P48736: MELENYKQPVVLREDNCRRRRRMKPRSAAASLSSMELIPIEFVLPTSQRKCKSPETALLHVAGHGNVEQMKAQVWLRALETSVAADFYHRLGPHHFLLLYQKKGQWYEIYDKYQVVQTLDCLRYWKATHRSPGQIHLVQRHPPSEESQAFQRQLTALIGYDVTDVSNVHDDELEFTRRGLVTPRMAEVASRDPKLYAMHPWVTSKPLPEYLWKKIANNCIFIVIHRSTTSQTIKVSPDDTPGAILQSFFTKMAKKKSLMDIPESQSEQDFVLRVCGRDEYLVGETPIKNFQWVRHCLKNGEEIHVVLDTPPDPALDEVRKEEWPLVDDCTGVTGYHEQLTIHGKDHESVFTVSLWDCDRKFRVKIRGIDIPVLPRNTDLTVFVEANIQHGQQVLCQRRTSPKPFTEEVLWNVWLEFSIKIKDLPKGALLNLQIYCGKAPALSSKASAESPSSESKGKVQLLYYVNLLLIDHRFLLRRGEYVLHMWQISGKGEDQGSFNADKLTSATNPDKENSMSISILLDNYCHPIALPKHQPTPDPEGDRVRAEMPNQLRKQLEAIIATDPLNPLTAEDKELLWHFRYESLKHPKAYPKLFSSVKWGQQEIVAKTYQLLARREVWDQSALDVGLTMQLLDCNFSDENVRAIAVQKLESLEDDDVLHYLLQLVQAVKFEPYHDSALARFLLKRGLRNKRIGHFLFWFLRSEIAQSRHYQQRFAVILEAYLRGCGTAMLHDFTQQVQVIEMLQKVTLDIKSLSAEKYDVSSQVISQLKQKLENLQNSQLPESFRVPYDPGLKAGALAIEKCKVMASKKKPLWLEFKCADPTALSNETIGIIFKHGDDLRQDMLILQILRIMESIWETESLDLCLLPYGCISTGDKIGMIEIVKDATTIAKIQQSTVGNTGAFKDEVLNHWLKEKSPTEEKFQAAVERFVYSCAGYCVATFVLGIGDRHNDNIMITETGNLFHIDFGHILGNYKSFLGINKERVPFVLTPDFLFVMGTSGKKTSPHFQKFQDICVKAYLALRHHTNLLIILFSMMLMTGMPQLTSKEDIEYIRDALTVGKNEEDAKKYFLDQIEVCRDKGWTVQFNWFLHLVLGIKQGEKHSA

SMILES strings stand for the structures.

One assay has as its target PIK3CB (UniProt P42338). Kind of assay: PIK3-beta Kinase Inhibition.
Another assay has as its target PIK3CG (UniProt P48736). Kind of assay: PIK3-gamma Kinase Inhibition.

Broadly, the IC50 is the concentration at which inhibition is half-maximal. A low value points to inhibition by little substance. On to `O=c1cc(N2CCOCC2)oc2c(-c3ccccc3)cccc12`, for which the IC50 amounted to 2.9 µM against PIK3CB and 38 µM on PIK3CG.
